Data on 3 compounds can be found in ChEMBL document CHEMBL1201862, “PubChem BioAssay data set” (2004).

Amino acid sequences for entries named in this document (tags omitted).
UniProt P35372, whole entry: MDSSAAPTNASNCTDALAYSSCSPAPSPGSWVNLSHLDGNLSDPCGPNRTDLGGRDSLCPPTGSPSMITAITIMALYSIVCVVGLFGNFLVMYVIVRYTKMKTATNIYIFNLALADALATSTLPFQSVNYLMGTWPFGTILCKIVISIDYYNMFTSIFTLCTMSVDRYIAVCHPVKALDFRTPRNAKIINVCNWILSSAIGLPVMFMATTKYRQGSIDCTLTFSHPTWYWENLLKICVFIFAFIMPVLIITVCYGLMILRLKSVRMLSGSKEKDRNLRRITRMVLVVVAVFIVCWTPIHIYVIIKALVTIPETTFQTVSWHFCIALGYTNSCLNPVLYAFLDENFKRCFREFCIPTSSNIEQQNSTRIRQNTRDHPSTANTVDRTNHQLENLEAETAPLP

Several values for one entry are separate records, joined by “and”; a condition that tells them apart may be missing. Equal entries are not always repeated. Activity calls are given as the source filed them.

For orientation: EC50 means the concentration giving half of the maximal effect. What is called IC50 is the concentration at which inhibition is half-maximal.

Assay [1] deals with T1, Caspase-3 (Homo sapiens, UniProt P42574).
T1 sequence (P42574 whole entry): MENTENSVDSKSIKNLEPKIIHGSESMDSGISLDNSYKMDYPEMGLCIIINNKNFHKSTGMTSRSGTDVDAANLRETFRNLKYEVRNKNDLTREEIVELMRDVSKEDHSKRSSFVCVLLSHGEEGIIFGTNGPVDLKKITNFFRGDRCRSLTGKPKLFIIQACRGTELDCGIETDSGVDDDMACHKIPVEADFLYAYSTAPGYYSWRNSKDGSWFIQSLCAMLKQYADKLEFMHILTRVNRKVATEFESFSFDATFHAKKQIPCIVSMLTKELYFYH
Nature of the assay: procaspase-3 activators, dose response, biochemical, absorbance (AID 489014).

Assay [2] concerns the target T2, Caspase-7 (Homo sapiens, UniProt P55210).
T2 sequence (P55210 whole entry): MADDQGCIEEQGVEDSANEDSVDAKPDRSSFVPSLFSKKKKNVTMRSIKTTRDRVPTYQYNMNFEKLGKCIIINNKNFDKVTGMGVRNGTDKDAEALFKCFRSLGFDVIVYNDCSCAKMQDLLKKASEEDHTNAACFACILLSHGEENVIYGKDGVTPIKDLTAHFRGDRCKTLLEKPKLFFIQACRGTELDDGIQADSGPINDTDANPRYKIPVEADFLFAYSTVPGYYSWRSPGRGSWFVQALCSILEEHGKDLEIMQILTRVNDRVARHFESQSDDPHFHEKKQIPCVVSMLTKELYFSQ
The assay is described as follows: procaspase-7 activators, dose response, counter-screen for procaspase-3 activator project, biochemical, absorbance (AID 489013). For orientation: Counterscreens check selectivity or assay interference.

For assay [3], the target named is Mu-type opioid receptor (Homo sapiens, UniProt P35372). The assay is classed as functional, cell-based.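 Further: U2OS cells with beta-arrestin recruitment to OPRM1 by beta-gal complementation.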
The nature of assay [4]: Counterscreen for AddAB inhibitors: absorbance-based bacterial cell-based high throughput dose response assay for inhibitors of bacterial viability. [Related pubchem assays (depositor defined):AID435030, AID449728, AID449731, AID488942, AID488955, AID488956]. The assay is classed as functional.

On to `Cc1ccc(S(=O)(=O)Nc2ccc(-c3nc4ccc(C)cc4s3)cc2)cc1`, for which the values for the EC50 in assay [1] and in assay [2] were active: > 9.48 µM and inactive: > 85.3 µM, respectively.

As for `C#C[C@]1(O)CC[C@H]2[C@@H]3CCC4=CC(=O)CC[C@]4(C)[C@H]3CC[C@@]21C` [ETHISTERONE], the EC50 in assay [3] is inactive: 92.6 µM.

Turning to `O=c1[nH]c(=O)n([C@H]2C[C@H](O)[C@@H](CO)O2)cc1C(F)(F)F` [TRIFLURIDINE], the IC50 in assay [4] is inactive: > 39.5 µM and inactive: > 39.6 µM.
